Data: PubChem BioAssay AID493160 (Sanford-Burnham Center for Chemical Genomics, 2011)
Only a part is listed here, and it is no random draw. The source made the active and inactive calls.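 Rule for the calls: active = inhibition above about 35% when tested at 20 µM (limit read from the data); inactive = the rest.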

Chains of the proteins cited; added tags and fusions are not shown.
UniProt Q2TB90, whole entry: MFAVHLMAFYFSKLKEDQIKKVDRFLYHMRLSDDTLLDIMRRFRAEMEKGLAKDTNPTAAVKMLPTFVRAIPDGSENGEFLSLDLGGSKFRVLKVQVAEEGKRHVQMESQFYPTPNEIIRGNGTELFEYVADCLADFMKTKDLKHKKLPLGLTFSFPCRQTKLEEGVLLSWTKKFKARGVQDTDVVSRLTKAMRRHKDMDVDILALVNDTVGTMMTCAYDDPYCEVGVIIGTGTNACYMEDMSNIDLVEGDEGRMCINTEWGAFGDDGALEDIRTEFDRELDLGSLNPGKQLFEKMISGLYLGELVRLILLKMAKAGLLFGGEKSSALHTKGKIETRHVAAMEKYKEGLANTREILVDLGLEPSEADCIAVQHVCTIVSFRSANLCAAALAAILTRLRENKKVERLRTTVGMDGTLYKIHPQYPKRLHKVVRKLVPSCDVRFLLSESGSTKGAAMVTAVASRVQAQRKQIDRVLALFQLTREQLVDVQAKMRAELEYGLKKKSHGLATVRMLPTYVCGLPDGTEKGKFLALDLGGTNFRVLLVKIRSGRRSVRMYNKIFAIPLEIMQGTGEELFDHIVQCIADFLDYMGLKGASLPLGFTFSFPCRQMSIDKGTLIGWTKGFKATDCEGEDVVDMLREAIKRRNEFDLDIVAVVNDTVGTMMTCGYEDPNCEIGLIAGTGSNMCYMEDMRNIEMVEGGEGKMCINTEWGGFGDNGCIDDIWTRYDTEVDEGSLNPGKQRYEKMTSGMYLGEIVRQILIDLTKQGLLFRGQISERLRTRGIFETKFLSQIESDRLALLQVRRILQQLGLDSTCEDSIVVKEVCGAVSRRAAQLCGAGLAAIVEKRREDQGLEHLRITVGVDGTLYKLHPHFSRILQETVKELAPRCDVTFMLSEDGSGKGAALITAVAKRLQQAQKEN

The compounds below were run against Hexokinase HKDC1 (Homo sapiens) (UniProt Q2TB90) (assay: HKDC1 hexokinase inhibitors, primary screen, biochemical, fluorescence, uHTS (AID 493160;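 note: plate controls were DMSO wells with enzyme for no effect and DMSO wells lacking enzyme for full effect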)). Conditions: recombinant HKDC1, G6PDH/diaphorase resazurin coupled fluorescence; at 20 µM; stronger effect = higher value.
With CCC(=O)N(c1ccccc1)C1(COC)CCN(CCc2cccs2)CC1 the inhibition was inactive: -0.88%. For CCC(=O)N(c1ccccc1)C1(COC)CCN(CCn2nnn(CC)c2=O)CC1, the inhibition was inactive: 2.51%.
